Experimental data published in PubChem BioAssay AID504905 (The Scripps Research Institute Molecular Screening Center, 2011).
The entries are a selection whose mix differs from that of the whole data set. Calls of active or inactive are those of the source. Cut-off read from the data, not from the text of the source: active = activation above about 17%; inactive = the rest.

The chains behind the UniProt entries cited, without tags or fusion partners.
UniProt P47898, whole entry, looked up: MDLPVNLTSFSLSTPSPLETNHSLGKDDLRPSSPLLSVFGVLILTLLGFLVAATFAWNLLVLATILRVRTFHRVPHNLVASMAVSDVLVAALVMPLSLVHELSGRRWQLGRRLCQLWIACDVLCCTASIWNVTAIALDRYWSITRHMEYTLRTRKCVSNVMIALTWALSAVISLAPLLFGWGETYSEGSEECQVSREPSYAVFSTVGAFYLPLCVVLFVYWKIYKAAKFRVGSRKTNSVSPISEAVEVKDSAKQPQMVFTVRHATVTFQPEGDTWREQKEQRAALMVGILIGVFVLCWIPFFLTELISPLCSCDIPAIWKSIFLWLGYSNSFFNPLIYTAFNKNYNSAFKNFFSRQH

biological target: 5-hydroxytryptamine receptor 5A (Homo sapiens) (UniProt P47898); test: HTR5A agonists in cells, counter-screen for OPRM1-OPRD1 heterodimer agonist project, cell-based, luminescence (AID 504905); settings: HTR5A agonist counterscreen, at 9.3 µM, hits give high values;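 note: 0% = vehicle-treated cells and 100% = reference agonist response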

Compound | activation
Cc1ccc(C)c(CN2CCC(n3nnc4cc(F)ccc43)CC2)c1 | inactive: 0.7%
CN(C(=O)Cc1ccc(Cl)c(Cl)c1)[C@H]1CC[C@@]2(CCCO2)C[C@@H]1N1CCCC1 | inactive: 2.96%
CCn1c(N)[n+](CC(=O)Nc2ccc(SC(F)F)cc2)c2ccccc21 | inactive: 2.41%
O=[N+]([O-])c1cc(Oc2ccc([N+](=O)[O-])cc2C(F)(F)F)cc([N+](=O)[O-])c1 | active: 18.1%
CN1CN(c2ccccc2)C2(CCN(CCCSc3ccccc3NC(=O)/C=C/c3ccccc3)CC2)C1=O | inactive: 8.16%
